The experiment addresses human CB1 receptor (Homo sapiens, UniProt P21554). The class given is binding.

The chains behind the UniProt entries cited, without tags or fusion partners.
UniProt P21554, whole entry: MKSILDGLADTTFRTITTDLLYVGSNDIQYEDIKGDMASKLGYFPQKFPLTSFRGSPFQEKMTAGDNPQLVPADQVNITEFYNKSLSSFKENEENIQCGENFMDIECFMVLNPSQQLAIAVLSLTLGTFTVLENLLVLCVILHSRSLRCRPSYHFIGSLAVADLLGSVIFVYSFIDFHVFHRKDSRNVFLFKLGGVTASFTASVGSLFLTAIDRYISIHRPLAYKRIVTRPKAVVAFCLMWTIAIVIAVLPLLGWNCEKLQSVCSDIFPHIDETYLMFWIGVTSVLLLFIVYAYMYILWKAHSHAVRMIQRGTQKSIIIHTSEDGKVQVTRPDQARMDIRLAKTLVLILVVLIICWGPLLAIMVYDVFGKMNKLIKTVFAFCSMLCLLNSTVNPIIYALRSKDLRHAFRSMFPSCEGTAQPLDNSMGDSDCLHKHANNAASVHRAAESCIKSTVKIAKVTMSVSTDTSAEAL

These results are taken from PMC6994307 (Current Therapeutic Research, Clinical and Experimental, 2019).

Take `O=C(Nc1ccc(Cl)cc1)Nc1cccc(-c2cccc(N3CCCC3)n2)c1` [PSNCBAM-1, 1-(4-Chlorophenyl)-3-{3-[6-(pyrrolidin-1-yl)pyridin-2-yl]phenyl} urea]: the Kb amounted to 55 nM.
